According to the NIST ThermoML archive (doi:10.1021/je1000582):

Assay: activity coefficient (dimensionless); of the first substance listed, at infinite dilution; xn = mol fraction of the nth substance listed
Conditions: 101 kPa, Liquid, Chromatography, x1 = 0

CCCCOCCCC [dibutyl ether] + CCCC[n+]1cccc(C)c1.O=S(=O)([O-])C(F)(F)F
Conditions | activity coefficient
308.15 K | 21.1 ± 1.4
318.15 K | 20.2 ± 1.4
328.15 K | 19.4 ± 1.3
338.15 K | 18.5 ± 1.3
348.15 K | 17.8 ± 1.2
358.15 K | 17.1 ± 1.2

Numbers after ± are expanded uncertainties.
